Measured values taken from patent publication US20260132129A1.
Read-outs that look alike come from different tables or passages of the source.

Amino acid sequences for entries named in this document (tags omitted).
UniProt P42336, whole entry H1047R: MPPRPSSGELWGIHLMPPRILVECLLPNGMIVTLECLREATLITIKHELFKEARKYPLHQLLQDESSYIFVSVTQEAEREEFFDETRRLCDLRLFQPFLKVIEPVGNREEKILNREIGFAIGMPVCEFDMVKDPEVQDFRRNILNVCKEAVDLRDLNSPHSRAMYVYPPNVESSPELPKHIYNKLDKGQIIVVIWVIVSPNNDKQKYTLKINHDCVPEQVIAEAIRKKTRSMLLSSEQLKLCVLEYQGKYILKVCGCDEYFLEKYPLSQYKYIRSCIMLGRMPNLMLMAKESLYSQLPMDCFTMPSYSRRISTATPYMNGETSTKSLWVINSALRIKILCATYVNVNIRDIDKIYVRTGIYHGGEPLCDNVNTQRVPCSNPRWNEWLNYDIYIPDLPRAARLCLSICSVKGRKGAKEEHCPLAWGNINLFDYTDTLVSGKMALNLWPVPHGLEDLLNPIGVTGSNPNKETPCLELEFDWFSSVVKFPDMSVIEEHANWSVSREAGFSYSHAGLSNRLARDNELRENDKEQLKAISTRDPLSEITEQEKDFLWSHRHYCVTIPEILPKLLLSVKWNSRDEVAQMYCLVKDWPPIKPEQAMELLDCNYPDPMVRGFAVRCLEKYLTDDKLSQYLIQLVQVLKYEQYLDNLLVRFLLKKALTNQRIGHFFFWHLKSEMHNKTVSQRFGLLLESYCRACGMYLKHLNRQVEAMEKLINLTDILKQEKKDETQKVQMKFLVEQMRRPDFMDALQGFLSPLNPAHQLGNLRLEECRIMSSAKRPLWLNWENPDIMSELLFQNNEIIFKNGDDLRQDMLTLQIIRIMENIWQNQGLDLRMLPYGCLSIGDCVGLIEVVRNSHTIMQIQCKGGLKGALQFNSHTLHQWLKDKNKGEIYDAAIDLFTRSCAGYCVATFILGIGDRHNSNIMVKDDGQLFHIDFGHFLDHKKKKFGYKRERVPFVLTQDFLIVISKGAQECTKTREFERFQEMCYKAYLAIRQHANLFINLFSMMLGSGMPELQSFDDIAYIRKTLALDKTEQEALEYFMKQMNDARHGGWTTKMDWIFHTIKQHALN
UniProt P27986, whole entry partner: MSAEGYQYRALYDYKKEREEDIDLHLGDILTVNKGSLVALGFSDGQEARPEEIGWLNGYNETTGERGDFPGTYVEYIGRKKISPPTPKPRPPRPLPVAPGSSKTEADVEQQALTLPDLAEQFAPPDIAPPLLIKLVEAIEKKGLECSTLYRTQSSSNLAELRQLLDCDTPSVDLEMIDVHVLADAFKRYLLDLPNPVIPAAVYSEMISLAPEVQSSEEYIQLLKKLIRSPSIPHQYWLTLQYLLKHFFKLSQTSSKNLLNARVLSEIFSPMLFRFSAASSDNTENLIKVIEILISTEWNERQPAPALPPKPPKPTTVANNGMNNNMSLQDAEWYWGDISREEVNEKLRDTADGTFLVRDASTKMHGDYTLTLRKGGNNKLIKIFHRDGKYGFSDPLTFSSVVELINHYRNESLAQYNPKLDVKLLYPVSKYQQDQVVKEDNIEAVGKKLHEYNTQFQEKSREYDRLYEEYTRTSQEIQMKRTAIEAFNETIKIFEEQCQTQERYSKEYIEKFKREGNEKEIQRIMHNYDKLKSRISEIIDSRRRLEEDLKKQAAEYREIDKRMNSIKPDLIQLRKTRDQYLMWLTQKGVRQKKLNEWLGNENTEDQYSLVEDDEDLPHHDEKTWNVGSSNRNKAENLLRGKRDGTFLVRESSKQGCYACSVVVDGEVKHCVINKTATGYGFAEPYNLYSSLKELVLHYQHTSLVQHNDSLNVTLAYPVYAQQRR

Target: PI3Kα H1047R (T47D cells) (Homo sapiens, UniProt P42336, H1047R)
Assay: PI3Kα cellular assay: pAKT HTRF in T47D cells after EGF stimulation
Format: cell-based
Conditions: for IC50: read-out: T47D pAKT S473 HTRF IC50 (H1047R): Average IC50, T47D cells (PI3Kα H1047R), pAKT S473 HTRF
[1] = selectivity of T47D (H1047R) over SKBR3 (WT) pAKT IC50
[2] = 1 hr compound, 20 ng/ml EGF 10 min
[3] = selectivity T47D (H1047R) over SKBR3 (WT), pAKT HTRF

| SMILES | IC50 (EGF stimulation) [nM] | T47D pAKT S473 HTRF IC50 (H1047R): T47D (H1047R) selectivity over SKBR3 (WT) [1] | IC50 [2] [nM] | T47D pAKT S473 HTRF IC50 (H1047R): T47D (H1047R) selectivity over SKBR3 (WT) [3] |
| --- | --- | --- | --- | --- |
| Cc1cc(C(C)Nc2ccccc2S(N)(=O)=O)c2nc(-c3ccc4c(c3)CC(F)(F)C4)c(C)c(=O)n2c1 (centres unmarked) | 100 to 500 | A (A denotes >20-fold) | – | – |
| Cc1cc([C@H](C)Nc2ccccc2C(=O)O)c2nc(N3CC4(CCOC4)C3)cc(=O)n2c1 | – | – | 500 to 2000 | – |
| Cc1cc([C@@H](C)Nc2cccc(C#N)c2C(=O)O)c2nc(-c3ccc4c(c3)c(C)nn4C)cc(=O)n2c1 | > 2000 | C (C denotes ≤5-fold) | – | – |
| Cc1cc([C@@H](C)Nc2ccccc2S(N)(=O)=O)c2nc(N3Cc4ccccc4C3)c(C3CC3)c(=O)n2c1 | 100 to 500 | A (A denotes >20-fold) | – | – |
| Cc1cc([C@H](C)Nc2ccccc2S(N)(=O)=O)c2nc(N3Cc4ccccc4C3)c(C3CC3)c(=O)n2c1 | > 2000 | C (C denotes ≤5-fold) | – | – |
| Cc1cc([C@H](C)Nc2ccccc2C(=O)O)c2nc(-c3cccc(C#N)c3)c(C)c(=O)n2c1 (single isomer, unassigned) | 100 to 500 | A (A denotes >20-fold) | – | – |
| Cc1cc([C@H](C)Nc2ccc(C(F)(F)F)nc2C(=O)O)c2nc(-c3cccc(F)c3)c(C)c(=O)n2c1 | > 2000 | – | – | C (C denotes ≤5-fold) |
| Cc1cc([C@@H](C)Nc2ccccc2C(=O)O)c2nc(-c3ccc4[nH]c(=O)sc4c3)cc(=O)n2c1 | – | – | < 100 | A (A denotes >20-fold) |
| Cc1cc([C@@H](C)Nc2ccccc2S(N)(=O)=O)c2nc(-c3ccc(F)c(C#N)c3)c(C)c(=O)n2c1 | 100 to 500 | A (A denotes >20-fold) | – | – |
| Cc1cc([C@@H](C)Nc2ccccc2C(=O)O)c2nc(N3CC4(COC4)C3)cc(=O)n2c1 | – | – | > 2000 | C (C denotes ≤5-fold) |
| Cc1cc([C@H](C)Nc2ccncc2C(=O)O)c2nc(N3CCOCC3)cc(=O)n2c1 (single isomer, unassigned) | – | – | > 2000 | C (C denotes ≤5-fold) |
| Cc1cc([C@H](C)Nc2ccccc2)c2nc(N3Cc4ccccc4C3)c(C)c(=O)n2c1 | > 2000 | – | – | C (C denotes ≤5-fold) |
| Cc1cc([C@H](C)Nc2ccccc2C2(O)COC2)c2nc(-c3cccc(F)c3)c(C)c(=O)n2c1 | > 2000 | – | – | C (C denotes ≤5-fold) |
| CNc1nc2cc(-c3cc(=O)n4cc(C)cc([C@@H](C)Nc5ccccc5C(=O)O)c4n3)ccc2o1 | – | – | 100 to 500 | A (A denotes >20-fold) |
| Cc1cc(C(C)Nc2cc(C(=O)O)c3[nH]ncc3c2)c2nc(N3CCOCC3)cc(=O)n2c1 (centres unmarked) | > 2000 | C (C denotes ≤5-fold) | – | – |
| Cc1cc([C@H](C)Nc2ccccc2C(=O)O)c2nc(-c3ccc4c(c3)c(C)nn4C3CC3)c(C)c(=O)n2c1 | > 2000 | C (C denotes ≤5-fold) | – | – |
| Cc1cc([C@@H](C)Nc2ccccc2C(N)=O)c2nc(-c3cccnc3)c(C)c(=O)n2c1 | < 100 | – | – | A (A denotes >20-fold) |
| Cc1cc([C@H](C)Nc2ccccc2S(N)(=O)=O)c2nc(N3Cc4ccccc4C3)c(C)c(=O)n2c1 | > 2000 | C (C denotes ≤5-fold) | – | – |
| Cc1cc([C@@H](C)Nc2ccccc2C(=O)O)c2nc(N3CC4(CCOC4)C3)cc(=O)n2c1 | – | – | > 2000 | C (C denotes ≤5-fold) |
| Cc1cc([C@H](C)Nc2ccccc2C(=O)O)c2nc(N3Cc4ccccc4[C@@H]3C)cc(=O)n2c1 | < 100 | A (A denotes >20-fold) | – | – |
| Cc1cc([C@H](C)Nc2ccccc2C(=O)O)c2nc(-c3ccc4c(n3)c(C)nn4C)c(C)c(=O)n2c1 | > 2000 | C (C denotes ≤5-fold) | – | – |
| Cc1cc(C(C)Nc2cccc3[nH]c(=O)oc23)c2nc(N3CCOCC3)cc(=O)n2c1 (centres unmarked) | – | – | > 2000 | C (C denotes ≤5-fold) |
| Cc1cc([C@H](C)Nc2ccccc2C(=O)O)c2nc(-c3ccc4c(c3)c(C)c(C)n4C)cc(=O)n2c1 | > 2000 | C (C denotes ≤5-fold) | – | – |
| Cc1cc([C@H](C)Nc2ccccc2C(=O)O)c2nc(N3CCN(C)CC3)cc(=O)n2c1 | – | – | > 2000 | C (C denotes ≤5-fold) |
| Cc1cc(C(C)Nc2ccccc2S(N)(=O)=O)c2nc(-c3ccc4c(c3)c(C)cn4C3CC3)c(C)c(=O)n2c1 (centres unmarked) | > 2000 | C (C denotes ≤5-fold) | – | – |

| SMILES | IC50 (EGF stimulation) [nM] | T47D pAKT S473 HTRF IC50 (H1047R): T47D (H1047R) selectivity over SKBR3 (WT) [1] | IC50 [2] [nM] | T47D pAKT S473 HTRF IC50 (H1047R): T47D (H1047R) selectivity over SKBR3 (WT) [3] |
| --- | --- | --- | --- | --- |
| Cc1cc([C@H](C)Nc2ccccc2-c2ccnnc2)c2nc(N3Cc4ccccc4C3)cc(=O)n2c1 | 100 to 500 | A (A denotes >20-fold) | – | – |
| Cc1cc([C@@H](C)Nc2ccccc2C(=O)O)c2nc(-c3cc(C)c4oc(=O)[nH]c4c3)cc(=O)n2c1 | – | – | < 100 | A (A denotes >20-fold) |
| Cc1cc(C(C)Nc2ccc(Cl)nc2C(=O)O)c2nc(-c3cccc(F)c3)c(C)c(=O)n2c1 (centres unmarked) | 100 to 500 | – | – | A (A denotes >20-fold) |
| CONC(=O)c1ccc(-c2cc(=O)n3cc(C)cc(C(C)Nc4ccccc4C(=O)O)c3n2)cc1 (centres unmarked) | – | – | 500 to 2000 | – |
| Cc1cc([C@@H](C)Nc2ccccc2C(=O)O)c2nc(-c3ccc4c(c3)c(=O)[nH]n4C)cc(=O)n2c1 | > 2000 | C (C denotes ≤5-fold) | – | – |
| Cc1cc(C(C)Nc2ccccc2C(=O)O)c2nc(OCc3ccc(F)cc3)c(C)c(=O)n2c1 (centres unmarked) | 100 to 500 | – | – | A (A denotes >20-fold) |
| Cc1cc([C@H](C)Nc2ccccc2C(=O)O)c2nc(-c3ccc4c(n3)c(C)nn4C)cc(=O)n2c1 | 500 to 2000 | – | – | – |
| Cc1cc([C@@H](C)Nc2ccccc2C(=O)O)c2nc(-c3cc(C)c4[nH]c(=O)[nH]c4c3)cc(=O)n2c1 (single isomer, unassigned) | – | – | > 2000 | C (C denotes ≤5-fold) |
| Cc1cc(C(C)Nc2ccccc2C(=O)O)c2nc(-c3ccc(C(C)(F)F)cc3)cc(=O)n2c1 (centres unmarked) | – | – | 100 to 500 | A (A denotes >20-fold) |
| Cc1cc([C@@H](C)Nc2ccccc2C(=O)O)c2nc(-n3cc(C(N)=O)c4ccccc43)cc(=O)n2c1 | – | – | 500 to 2000 | – |
| Cc1nn(C)c2ccc(-c3cc(=O)n4cc(Cl)cc(C(C)Nc5ccccc5C(=O)O)c4n3)cc12 (centres unmarked) | < 100 | A (A denotes >20-fold) | – | – |
| Cc1cc(C(C)Nc2cccc(CC(=O)O)c2)c2nc(N3CCOCC3)cc(=O)n2c1 (centres unmarked) | – | – | > 2000 | C (C denotes ≤5-fold) |
| Cc1cc([C@H](C)Nc2ccccc2-c2cc(O)no2)c2nc(-c3cccc(F)c3)c(C)c(=O)n2c1 (single isomer, unassigned) | 100 to 500 | – | – | A (A denotes >20-fold) |
| Cc1cc(C(C)Nc2ccccc2C(=O)O)c2nc(N3CCC(C(N)=O)CC3)cc(=O)n2c1 (centres unmarked) | – | – | > 2000 | C (C denotes ≤5-fold) |
| Cc1cc(C(C)Nc2ccccc2S(N)(=O)=O)c2nc(-c3ccnc(C4CC4)c3)c(C)c(=O)n2c1 (centres unmarked) [Compound 1096] | 100 to 500 | – | – | A (A denotes >20-fold) |
| Cc1cc([C@H](C)Nc2ccccc2C(=O)O)c2nc(-c3ccc(C(C)C)nc3)c(C)c(=O)n2c1 | 500 to 2000 | – | – | – |
| Cc1cc(C(C)Nc2ccccc2C(=O)O)c2nc(-c3ccc(F)cc3)c(C#N)c(=O)n2c1 (centres unmarked) [Compound 1260] | < 100 | A (A denotes >20-fold) | – | – |
| Cc1cc(C(C)Nc2ccccc2C(=O)O)c2nc(Nc3cc(C)cn4c(=O)[nH]nc34)cc(=O)n2c1 (centres unmarked) | > 2000 | C (C denotes ≤5-fold) | – | – |
| Cc1cc([C@@H](C)Nc2ccccc2S(N)(=O)=O)c2nc(-c3cnc4c(c3)c(C)cn4C)c(C)c(=O)n2c1 | 100 to 500 | – | – | A (A denotes >20-fold) |
| Cc1cc([C@@H](C)Nc2ccccc2C(N)=O)c2nc(-c3cccc(C(F)F)c3)c(C)c(=O)n2c1 | 100 to 500 | – | – | A (A denotes >20-fold) |
| Cc1cc([C@H](C)Nc2ccccc2C(=O)O)c2nc(-c3ccc4c(c3)c(N)nn4C3CC3)cc(=O)n2c1 | > 2000 | C (C denotes ≤5-fold) | – | – |
| Cc1cc([C@@H](C)Nc2ccccc2S(N)(=O)=O)c2nc(N3Cc4ccccc4[C@@H]3C)c(C)c(=O)n2c1 | 100 to 500 | – | – | A (A denotes >20-fold) |
| Cc1cc(C(C)Nc2cc3cn[nH]c3cc2C(=O)O)c2nc(N3CCOCC3)cc(=O)n2c1 (centres unmarked) | > 2000 | C (C denotes ≤5-fold) | – | – |
| Cc1cc([C@@H](C)Nc2ccccc2C(=O)O)c2nc(-c3cccnc3)c(C3CC3)c(=O)n2c1 | < 100 | – | – | A (A denotes >20-fold) |
| Cc1cc([C@H](C)Nc2ccccc2S(N)(=O)=O)c2nc(-c3ccc4c(c3)c(C)cn4C3CC3)c(C)c(=O)n2c1 | 100 to 500 | A (A denotes >20-fold) | – | – |
